# Experimental data as given in paper PMC4778445, “Measurement of free glucocorticoids: quantifying corticosteroid-binding globulin binding affinity and its variation within and among mammalian species” (Conservation Physiology, 2015).
# What was measured:
# Assay in all cases: radioligand saturation binding, dextran-coated charcoal separation
# [1] = biological target: T1, corticosteroid-binding globulin (CBG), Richardson's ground squirrel; parameters: species or system Urocitellus richardsonii; conditions: labelled compound ([1,2,6,7-3H]cortisol); 37 °C, ≥4 h, PBS with gelatin; separation at 0 °C; plasma 1/50; mean of 16 individual males; error SEM
# T1 construct: gene SERPINA6; native protein in charcoal-stripped individual plasma, not purified
# [2] = biological target: T2, corticosteroid-binding globulin (CBG), red squirrel; parameters: species or system Tamiasciurus hudsonicus; conditions: labelled compound ([1,2,6,7-3H]cortisol); 37 °C, ≥4 h, PBS with gelatin; separation at 0 °C; pooled plasma 1/80-1/10; mean of six runs; error SEM
# T2 construct: gene SERPINA6; native protein in charcoal-stripped plasma, not purified
# [3] = biological target: T3, corticosteroid-binding globulin (CBG), lynx; parameters: species or system Lynx canadensis; conditions: labelled compound ([1,2,6,7-3H]cortisol); 37 °C, ≥4 h, PBS with gelatin; separation at 0 °C; serum 1/50; error SEM
# T3 construct: gene SERPINA6; native protein in charcoal-stripped serum (Toronto Zoo), not purified
# [4] = biological target: T4, corticosteroid-binding globulin (CBG), Columbian ground squirrel; parameters: species or system Urocitellus columbianus; conditions: labelled compound ([1,2,6,7-3H]cortisol); 37 °C, ≥4 h, PBS with gelatin; separation at 0 °C; plasma 1/50; mean of five runs; error SEM
# T4 construct: gene SERPINA6; native protein in charcoal-stripped plasma, not purified
# [5] = biological target: T5, corticosteroid-binding globulin (CBG), snowshoe hare; parameters: species or system Lepus americanus; conditions: labelled compound ([1,2,6,7-3H]cortisol); 37 °C, ≥4 h, PBS with gelatin; separation at 0 °C; plasma 1/25; non-specific binding subtracted; error SEM
# T5 construct: gene SERPINA6; native protein in charcoal-stripped plasma, not purified
# [6] = biological target: T6, corticosteroid-binding globulin (CBG), spotted hyena; parameters: species or system Crocuta crocuta; conditions: labelled compound ([1,2,6,7-3H]cortisol); 37 °C, ≥4 h, PBS with gelatin; separation at 0 °C; serum 1/50; mean of two runs; error SEM
# T6 construct: gene SERPINA6; native protein in charcoal-stripped serum (Toronto Zoo), not purified
smiles,measurement,setting,value
"C[C@]12CCC(=O)C=C1CC[C@@H]1[C@@H]2[C@@H](O)C[C@@]2(C)[C@H]1CC[C@]2(O)C(=O)CO [F, cortisol]",Kd,[1],4.3 ± 0.36 nM
same,Kd,[2],61.1 ± 2.9 nM
same,Kd,[3],6.8 ± 0.63 nM
same,Kd,[4],5.1 ± 1 nM
same,Kd,[5],0.6 ± 0.18 nM
same,Kd,[6],4 ± 0.4 nM
